{
  "source": "patent US20130303575A1",
  "about": "“ADMINISTRATION OF AN INHIBITOR OF HDAC” (priority 2007, published 2013)",
  "assay": "Plasma pharmacokinetics of oral SNDX-275 in adults with advanced acute leukemias (Example 3)",
  "type": "in vivo, human",
  "note": "Marks after values point to notes of the source that are not given here.",
  "data": [
    {"molecule": "Nc1ccccc1NC(=O)c1ccc(CNC(=O)OCc2cccnc2)cc1", "note": "[SNDX-275, N-(2-aminophenyl) 4-[N-(pyrid-3-yl)methyloxycarbonylaminomethyl]benzamide]", "values": [
      {"measurement": "CL/F (mean and SD)", "setting": "4 mg/m^2, first dose, with food, 7 patients", "result": "40.9 ± 17.2^ L/h"},
      {"measurement": "CL/F (mean and SD)", "setting": "6 mg/m^2, first dose, with food, n = 5", "result": "34.4 ± 11.5^a L/h"},
      {"measurement": "CL/F (mean and SD)", "setting": "8 mg/m^2, first dose, with food, n = 10", "result": "66.7 ± 54.5^b L/h"},
      {"measurement": "CL/F (mean and SD)", "setting": "10 mg/m^2, first dose, with food, n = 5", "result": "68.2 ± 25.4^c L/h"},
      {"measurement": "CL/F (mean and SD)", "setting": "All doses, n = 27", "result": "54.0 ± 37.2^d L/h"}
    ]}
  ]
}
